{"sequences": {"note": "Sequences of proteins named here, by UniProt entry; tags and fusion partners are left off. A line that says so, or that is headed by a name, gives the form on record, which may keep a tag or linker. Residues count along the entry.", "UniProt P05106, 27-788 limits assumed": "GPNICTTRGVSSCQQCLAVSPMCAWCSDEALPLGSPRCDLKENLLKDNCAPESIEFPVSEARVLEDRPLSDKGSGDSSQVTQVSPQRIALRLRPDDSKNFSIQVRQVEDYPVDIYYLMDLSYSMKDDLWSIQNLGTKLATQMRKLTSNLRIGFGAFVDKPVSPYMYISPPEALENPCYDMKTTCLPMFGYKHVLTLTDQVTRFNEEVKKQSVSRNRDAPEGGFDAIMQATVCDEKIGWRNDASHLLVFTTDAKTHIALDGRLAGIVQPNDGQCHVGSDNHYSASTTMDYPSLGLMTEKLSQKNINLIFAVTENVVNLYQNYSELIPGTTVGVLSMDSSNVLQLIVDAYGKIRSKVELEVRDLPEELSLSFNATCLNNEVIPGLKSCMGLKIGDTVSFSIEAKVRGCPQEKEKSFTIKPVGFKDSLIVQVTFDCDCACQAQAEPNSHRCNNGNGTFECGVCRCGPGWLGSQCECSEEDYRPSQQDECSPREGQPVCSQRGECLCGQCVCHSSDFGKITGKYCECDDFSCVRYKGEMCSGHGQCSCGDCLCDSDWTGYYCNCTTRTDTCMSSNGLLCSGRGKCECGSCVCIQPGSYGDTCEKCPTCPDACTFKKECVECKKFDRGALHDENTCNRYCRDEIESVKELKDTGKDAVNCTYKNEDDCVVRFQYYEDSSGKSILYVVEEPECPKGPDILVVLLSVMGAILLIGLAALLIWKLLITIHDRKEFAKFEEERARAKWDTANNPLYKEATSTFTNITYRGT", "UniProt P08514, with tags, fused parts or gaps limits assumed": "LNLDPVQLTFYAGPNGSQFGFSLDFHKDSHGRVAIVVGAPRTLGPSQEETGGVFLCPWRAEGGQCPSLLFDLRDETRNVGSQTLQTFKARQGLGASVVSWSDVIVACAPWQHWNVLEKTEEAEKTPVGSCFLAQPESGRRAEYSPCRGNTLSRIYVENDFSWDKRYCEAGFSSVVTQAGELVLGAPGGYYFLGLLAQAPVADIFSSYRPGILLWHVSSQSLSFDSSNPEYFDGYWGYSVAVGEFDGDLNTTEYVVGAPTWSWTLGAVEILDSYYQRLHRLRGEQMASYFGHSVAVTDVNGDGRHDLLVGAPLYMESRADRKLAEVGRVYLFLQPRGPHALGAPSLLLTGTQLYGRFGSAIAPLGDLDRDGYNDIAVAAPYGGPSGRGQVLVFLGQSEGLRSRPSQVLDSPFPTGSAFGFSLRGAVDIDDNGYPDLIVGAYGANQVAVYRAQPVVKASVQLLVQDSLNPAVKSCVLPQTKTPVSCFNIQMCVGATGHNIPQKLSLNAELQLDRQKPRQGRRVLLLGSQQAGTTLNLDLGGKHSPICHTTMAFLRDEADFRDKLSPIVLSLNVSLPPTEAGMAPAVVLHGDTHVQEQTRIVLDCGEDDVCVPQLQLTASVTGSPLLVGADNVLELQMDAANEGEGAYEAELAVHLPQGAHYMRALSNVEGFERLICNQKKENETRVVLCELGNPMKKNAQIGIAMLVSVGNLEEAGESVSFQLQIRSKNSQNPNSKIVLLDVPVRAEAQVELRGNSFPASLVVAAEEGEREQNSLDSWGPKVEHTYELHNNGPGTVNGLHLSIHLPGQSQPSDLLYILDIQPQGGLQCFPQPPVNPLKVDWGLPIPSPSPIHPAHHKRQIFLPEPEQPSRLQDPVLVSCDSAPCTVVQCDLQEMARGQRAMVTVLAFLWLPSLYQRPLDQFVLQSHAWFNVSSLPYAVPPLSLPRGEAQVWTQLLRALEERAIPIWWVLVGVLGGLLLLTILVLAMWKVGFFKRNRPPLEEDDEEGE"}, "source": "patent EP0730590B1", "about": "“ISOXAZOLINE AND ISOXAZOLE FIBRINOGEN RECEPTOR ANTAGONISTS” (Dupont Pharmaceuticals Company, priority 1993, dated 1995)", "data": [{"target": "agonist-induced platelet aggregation (Homo sapiens, UniProt P05106+P08514)", "experiment": "Platelet Aggregation Assay in platelet-rich plasma (PRP)", "type": "cell-based", "conditions": "read-out: Platelet Aggregation Assay IC50 (without esterase)", "units": {"IC50": "µM"}, "values": [{"smiles": "N=C(N)c1ccc(C2=NOC(CC(=O)NCC(NC(=O)OCc3ccccc3Br)C(=O)O)C2)cc1", "note": "(stereo not drawn)", "IC50": "< 10"}, {"smiles": "CCCCOC(=O)NC(CNC(=O)CC1CC(CCCC2CCNCC2)=NO1)C(=O)OC", "note": "(stereo not drawn)", "IC50": "< 10"}, {"smiles": "N=C(N)c1ccc(C2=NOC(CC(=O)NCC(NC(=O)OCCCC(F)(F)F)C(=O)O)C2)cc1", "note": "(stereo not drawn)", "IC50": "< 10"}, {"smiles": "N=C(N)c1ccc(C2=NOC(CC(=O)NCC(NC(=O)OCc3ccccc3Cl)C(=O)O)C2)cc1", "note": "(stereo not drawn)", "IC50": "< 10"}, {"smiles": "Cc1cccc(S(=O)(=O)N[C@@H](CNC(=O)CC2CC(c3ccc(C(=N)N)cc3)=NO2)C(=O)O)c1", "note": "(stereo partly drawn)", "IC50": "< 10"}, {"smiles": "COC(=O)C[C@H](NC(=O)CC1CC(c2ccc(C(=N)N)cc2)=NO1)C(=O)NCC12CC3CC(CC(C3)C1)C2", "note": "(stereo partly drawn)", "IC50": "< 10"}, {"smiles": "COC(=O)[C@H](CNC(=O)CC1CC(CCC2CCNCC2)=NO1)NC(=O)OCc1ccccc1", "note": "(stereo partly drawn)", "IC50": "50 to 100"}, {"smiles": "COC(=O)C[C@H](NC(=O)CC1CC(c2ccc(C(=N)N)cc2)=NO1)C(=O)OC", "note": "(stereo partly drawn)", "IC50": "50 to 100"}, {"smiles": "N=C(N)c1ccc(C2=NOC(CC(=O)NCC(NC(=O)OCCC3CC3)C(=O)O)C2)cc1", "note": "(stereo not drawn)", "IC50": "< 10"}, {"smiles": "N=C(N)c1ccc(C2=NOC(CC(=O)NCC(NC(=O)OCCC3CCCC3)C(=O)O)C2)cc1", "note": "(stereo not drawn)", "IC50": "< 10"}, {"smiles": "N=C(N)c1ccc(C2=NOC(CC(=O)NC(CC(=O)O)C(=O)NCC34CC5CC(CC(C5)C3)C4)C2)cc1", "note": "(stereo not drawn)", "IC50": "< 10"}, {"smiles": "CC(C)COC(=O)NC(CNC(=O)CC1CC(c2ccc(C(=N)N)cc2)=NO1)C(=O)O", "note": "(stereo not drawn)", "IC50": "< 10"}, {"smiles": "COC(=O)C[C@H](NC(=O)CC1CC(c2ccc(C(=N)N)cc2)=NO1)C(=O)N(C)C", "note": "(stereo partly drawn)", "IC50": "50 to 100"}, {"smiles": "N=C(N)c1ccc(C2=NOC(CC(=O)NC(CCCc3ccccc3)CC(=O)O)C2)cc1", "note": "(single isomer, unassigned)", "IC50": "< 10"}, {"smiles": "CCCCCCOC(=O)NC(CNC(=O)CC1CC(c2ccc(C(=N)N)cc2)=NO1)C(=O)O", "note": "(stereo not drawn)", "IC50": "< 10"}, {"smiles": "N=C(N)c1ccc(C2=NOC(CC(=O)NC(CCc3cccnc3)CC(=O)O)C2)cc1", "note": "(single isomer, unassigned)", "IC50": "< 10"}]}, {"target": "human platelet rich plasma (Homo sapiens, UniProt P05106+P08514)", "experiment": "Platelet Aggregation Assay, ester prodrugs preincubated with porcine liver esterase", "conditions": "read-out: Platelet Aggregation Assay IC50 (with esterase), platelet rich plasma (PRP)", "units": {"IC50": "µM"}, "values": [{"smiles": "CCc1ccc(C(=O)NC(CNC(=O)CC2CC(c3ccc(C(=N)N)cc3)=NO2)C(=O)OC)cc1", "note": "(stereo not drawn)", "IC50": "< 10"}, {"smiles": "COC(=O)CC(CCCc1ccccc1)NC(=O)CC1CC(c2ccc(C(=N)N)cc2)=NO1", "note": "(stereo not drawn)", "IC50": "< 10"}, {"smiles": "COC(=O)C(CNC(=O)CC1CC(c2ccc(C(=N)N)cc2)=NO1)NS(=O)(=O)c1ccccc1Br", "note": "(stereo not drawn)", "IC50": "< 10"}, {"smiles": "COC(=O)C(CNC(=O)CC1CC(c2ccc(C(=N)N)cc2)=NO1)NC(=O)OCc1ccccc1Cl", "note": "(stereo not drawn)", "IC50": "< 10"}, {"smiles": "COC(=O)CC(NC(=O)CC1CC(c2ccc(C(=N)N)cc2)=NO1)C(=O)NC12CC3CC(CC(C3)C1)C2", "note": "(stereo not drawn)", "IC50": "< 10"}, {"smiles": "COC(=O)C(CNC(=O)CC1CC(c2ccc(C(=N)N)cc2)=NO1)NS(=O)(=O)c1cccc(Br)c1", "note": "(stereo not drawn)", "IC50": "< 10"}, {"smiles": "COC(=O)[C@H](CNC(=O)CC1CC(c2ccc(C(=N)N)cc2)=NO1)NS(=O)(=O)C=Cc1ccccc1", "note": "(stereo partly drawn)", "IC50": "< 10"}, {"smiles": "COC(=O)[C@H](CNC(=O)CC1CC(CCC2CCNCC2)=NO1)NC(=O)OCc1ccccc1", "note": "(stereo partly drawn)", "IC50": "< 10"}, {"smiles": "COC(=O)C(CNC(=O)CC1CC(c2ccc(C(=N)N)cc2)=NO1)NS(=O)(=O)c1ccc(-c2cc(C(F)(F)F)n(C)n2)s1", "note": "(stereo not drawn)", "IC50": "< 10"}, {"smiles": "COC(=O)C[C@H](NC(=O)CC1CC(c2ccc(C(=N)N)cc2)=NO1)C(=O)OC", "note": "(stereo partly drawn)", "IC50": "< 10"}, {"smiles": "COC(=O)C(CNC(=O)CC1CC(c2ccc(C(=N)N)cc2)=NO1)NS(=O)(=O)c1ccc(Br)s1", "note": "(stereo not drawn)", "IC50": "< 10"}, {"smiles": "COC(=O)C(CNC(=O)CC1CC(c2ccc(C(=N)N)cc2)=NO1)NS(=O)(=O)c1ccc(Br)cc1", "note": "(stereo not drawn)", "IC50": "< 10"}, {"smiles": "COC(=O)C(CNC(=O)CC1CC(c2ccc(C(=N)N)cc2)=NO1)NS(=O)(=O)c1c(C)nn(C)c1Cl", "note": "(stereo not drawn)", "IC50": "< 10"}, {"smiles": "COC(=O)C[C@@H](CC(C)C)NC(=O)CC1CC(c2ccc(C(=N)N)cc2)=NO1", "note": "(stereo partly drawn)", "IC50": "< 10"}, {"smiles": "COC(=O)CC(NC(=O)CC1CC(c2ccc(C(=N)N)cc2)=NO1)C(=O)NC1C2CC3CC(C2)CC1C3", "note": "(stereo not drawn)", "IC50": "< 10"}, {"smiles": "COC(=O)CC(NC(=O)CC1CC(c2ccc(C(=N)N)cc2)=NO1)C(=O)N1CCSCC1", "note": "(stereo not drawn)", "IC50": "< 10"}, {"smiles": "COC(=O)C(CNC(=O)CC1CC(c2ccc(C(=N)N)cc2)=NO1)NC(=O)OCC(C)C", "note": "(stereo not drawn)", "IC50": "< 10"}, {"smiles": "CCCCOC(=O)NC(CNC(=O)CC1CC(c2ccc(C(=N)N)cc2F)=NO1)C(=O)OC", "note": "(stereo not drawn)", "IC50": "< 10"}, {"smiles": "COC(=O)CC(NC(=O)CC1CC(c2ccc(C(=N)N)cc2)=NO1)C(=O)N1CCc2ccccc2C1", "note": "(stereo not drawn)", "IC50": "< 10"}, {"smiles": "COC(=O)C(CNC(=O)CC1CC(c2ccc(C(=N)N)cc2)=NO1)NS(=O)(=O)c1ccc(-c2ccccn2)s1", "note": "(stereo not drawn)", "IC50": "< 10"}, {"smiles": "COC(=O)C(CNC(=O)CC1CC(c2ccc(C(=N)N)cc2)=NO1)NC(=O)OCCC1CCCC1", "note": "(stereo not drawn)", "IC50": "< 10"}, {"smiles": "COC(=O)CC(CCc1cccnc1)NC(=O)CC1CC(c2ccc(C(=N)N)cc2)=NO1", "note": "(single isomer, unassigned)", "IC50": "< 10"}, {"smiles": "COC(=O)CC(NC(=O)CC1CC(c2ccc(C(=N)N)cc2)=NO1)C(=O)N1CCSC1", "note": "(stereo not drawn)", "IC50": "< 10"}, {"smiles": "COC(=O)CC(NC(=O)CC1CC(c2ccc(C(=N)N)cc2)=NO1)C(=O)N1CCCc2ccccc21", "note": "(stereo not drawn)", "IC50": "< 10"}, {"smiles": "COC(=O)CC(CN(C)C)NC(=O)CC1CC(c2ccc(C(=N)N)cc2)=NO1", "note": "(single isomer, unassigned)", "IC50": "< 10"}, {"smiles": "COC(=O)C(CNC(=O)CC1CC(c2ccc(C(=N)N)cc2)=NO1)NC(=O)OCCCC(F)(F)F", "note": "(stereo not drawn)", "IC50": "< 10"}, {"smiles": "CCCCCCOC(=O)NC(CNC(=O)CC1CC(c2ccc(C(=N)N)cc2)=NO1)C(=O)OC", "note": "(stereo not drawn)", "IC50": "< 10"}, {"smiles": "COC(=O)CC(NC(=O)CC1CC(c2ccc(C(=N)NC(=O)OC(C)(C)C)cc2)=NO1)C(=O)N1CCN(Cc2ccccc2)CC1", "note": "(stereo not drawn)", "IC50": "< 10"}, {"smiles": "CCOC(=O)CC(NC(=O)CC1CC(c2ccc(C(=N)N)cc2)=NO1)C(=O)NCC12CC3CC(CC(C3)C1)C2", "note": "(stereo not drawn)", "IC50": "< 10"}, {"smiles": "COC(=O)C(CNC(=O)CC1CC(c2ccc(C(=N)N)cc2)=NO1)NS(=O)(=O)c1cc2ccccc2s1", "note": "(stereo not drawn)", "IC50": "< 10"}, {"smiles": "COC(=O)C(CNC(=O)CC1CC(c2ccc(C(=N)N)cc2)=NO1)NS(=O)(=O)c1sccc1Br", "note": "(stereo not drawn)", "IC50": "< 10"}, {"smiles": "COC(=O)C[C@H](NC(=O)CC1CC(c2ccc(C(=N)N)cc2)=NO1)C(=O)N(C)C", "note": "(stereo partly drawn)", "IC50": "10 to 50"}, {"smiles": "COC(=O)C(CNC(=O)CC1CC(c2ccc(C(=N)N)cc2)=NO1)NS(=O)(=O)c1cccc(Cl)c1Cl", "note": "(stereo not drawn)", "IC50": "< 10"}, {"smiles": "COC(=O)[C@H](CNC(=O)CC1CC(c2ccc(C(=N)N)cc2)=NO1)NS(=O)(=O)c1ccc2ccccc2c1", "note": "(stereo partly drawn)", "IC50": "< 10"}, {"smiles": "COC(=O)C(CNC(=O)CC1CC(c2ccc(C(=N)N)cc2)=NO1)NS(=O)(=O)c1ccccc1C", "note": "(stereo not drawn)", "IC50": "< 10"}, {"smiles": "CCOC(=O)CC(CCCC(C)C)NC(=O)CC1CC(c2ccc(C(=N)N)cc2)=NO1", "note": "(stereo not drawn)", "IC50": "10 to 50"}, {"smiles": "COC(=O)[C@H](CNC(=O)CC1CC(c2ccc(C(=N)N)cc2)=NO1)NS(=O)(=O)c1cccc2ccccc12", "note": "(stereo partly drawn)", "IC50": "< 10"}, {"smiles": "COC(=O)C(CNC(=O)CC1CC(c2ccc(C(=N)N)cc2)=NO1)NC(=O)OCCC1CC1", "note": "(stereo not drawn)", "IC50": "< 10"}, {"smiles": "COC(=O)C(CNC(=O)CC1CC(c2ccc(C(=N)N)cc2)=NO1)NS(=O)(=O)c1ccc(-c2ccon2)s1", "note": "(stereo not drawn)", "IC50": "< 10"}, {"smiles": "COC(=O)C(CNC(=O)CC1CC(c2ccc(C(=N)N)cc2)=NO1)NS(=O)(=O)c1cc(C)c(Cl)cc1C", "note": "(stereo not drawn)", "IC50": "< 10"}, {"smiles": "COC(=O)CC(CN1CCCC1)NC(=O)CC1CC(c2ccc(C(=N)N)cc2)=NO1", "note": "(stereo not drawn)", "IC50": "< 10"}, {"smiles": "COC(=O)CC(NC(=O)CC1CC(c2ccc(C(=N)N)cc2)=NO1)C(=O)N(C)CCc1ccccc1", "note": "(stereo not drawn)", "IC50": "< 10"}, {"smiles": "COC(=O)C(CNC(=O)CC1CC(c2ccc(C(=N)N)cc2)=NO1)NS(=O)(=O)c1sc2ccccc2c1C", "note": "(stereo not drawn)", "IC50": "< 10"}, {"smiles": "COC(=O)C(CNC(=O)CC1CC(c2ccc(C(=N)N)cc2)=NO1)NS(=O)(=O)c1sc(NC(C)=O)nc1C", "note": "(stereo not drawn)", "IC50": "< 10"}, {"smiles": "COC(=O)C(CNC(=O)CC1CC(c2ccc(C(=N)N)cc2)=NO1)NC(=O)OCc1ccccc1Br", "note": "(stereo not drawn)", "IC50": "< 10"}, {"smiles": "CCOC(=O)C[C@@H](CC(C)C)NC(=O)CC1CC(c2ccc(C(=N)N)cc2)=NO1", "note": "(stereo partly drawn)", "IC50": "< 10"}, {"smiles": "CCCS(=O)(=O)NC(CNC(=O)CC1CC(c2ccc(C(=N)N)cc2)=NO1)C(=O)OC", "note": "(stereo not drawn)", "IC50": "< 10"}, {"smiles": "COC(=O)C(CNC(=O)CC1CC(c2ccc(C(=N)N)cc2)=NO1)NC(=O)c1ccc2ccccc2c1", "note": "(stereo not drawn)", "IC50": "< 10"}, {"smiles": "COC(=O)CC(NC(=O)CC1CC(c2ccc(C(=N)N)cc2)=NO1)C(=O)N1CCN(Cc2ccccc2)CC1", "note": "(stereo not drawn)", "IC50": "< 10"}, {"smiles": "COC(=O)CC(CNS(=O)(=O)N(C)C)NC(=O)CC1CC(c2ccc(C(=N)N)cc2)=NO1", "note": "(stereo not drawn)", "IC50": "< 10"}, {"smiles": "COC(=O)[C@H](CNC(=O)CC1CC(c2ccc(C(=N)N)cc2)=NO1)NS(=O)(=O)c1cccc(C)c1", "note": "(single isomer, unassigned)", "IC50": "< 10"}, {"smiles": "CCCC[C@H](CC(=O)OC)NC(=O)CC1CC(c2ccc(C(=N)N)cc2)=NO1", "note": "(stereo partly drawn)", "IC50": "< 10"}, {"smiles": "COC(=O)C(CNC(=O)CC1CC(c2ccc(C(=N)N)cc2)=NO1)NC(=O)NCc1ccccc1", "note": "(stereo not drawn)", "IC50": "< 10"}]}]}
